Assay results reported in patent US9994691B2, “Antimicrobial cleansing composition” (Conopco, Inc., d/b/a UNILEVER, priority 2014, dated 2018).

Description: Disclosed antimicrobial cleansing composition includes 0.1 to 100 ppm silver (I) compound.

Substance	Silver Ion Solubility [Ag+] [µM]
Silver oxide	140
Silver salicylate	3900
